Target: T1, Neutrophil elastase (Homo sapiens, UniProt P08246)
T1 sequence (P08246 whole entry): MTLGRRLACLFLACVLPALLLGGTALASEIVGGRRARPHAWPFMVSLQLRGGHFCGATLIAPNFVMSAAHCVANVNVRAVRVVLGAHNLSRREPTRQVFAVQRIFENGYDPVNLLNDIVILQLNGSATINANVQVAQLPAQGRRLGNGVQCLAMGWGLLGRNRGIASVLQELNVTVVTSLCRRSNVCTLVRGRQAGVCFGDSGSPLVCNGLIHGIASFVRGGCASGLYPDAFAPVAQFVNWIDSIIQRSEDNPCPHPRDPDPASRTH
Test: Inhibition of human neutrophil elastase measured for 30 mins by spectrophotometry

Structure (SMILES)	IC50
C/C(=N/O)c1ccccc1NS(=O)(=O)c1ccc(OC(=O)C(C)(C)C)cc1	50 nM
CC(C)(C)C(=O)Oc1ccc(S(=O)(=O)Nc2ccccc2C(=O)NCC(=O)O)cc1	70 nM

Reference: ChEMBL document CHEMBL3396960, “Synthesis and pharmacological characterization of 2-aminobenzaldehyde oxime analogs as dual inhibitors of neutrophil elastase and proteinase 3” (Bioorg Med Chem, 2015)
